# Literature values as cited in patent US7439027B2, “Method for modulating process mediated by farnesoid activated receptors” (The Salk Institute for Biological Studies, priority 1995, dated 2008).
# Chains of the proteins cited; added tags and fusions are not shown. Lines headed by an entry give the natural chain unless they say otherwise; changes in a name come on top.
# UniProt Q13907: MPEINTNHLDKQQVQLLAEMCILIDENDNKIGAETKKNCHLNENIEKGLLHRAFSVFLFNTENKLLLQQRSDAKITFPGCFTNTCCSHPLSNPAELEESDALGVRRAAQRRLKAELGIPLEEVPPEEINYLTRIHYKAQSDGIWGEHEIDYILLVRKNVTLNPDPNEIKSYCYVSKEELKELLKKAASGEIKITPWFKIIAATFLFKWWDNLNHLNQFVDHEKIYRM
# Target: isopentenyl pyrophosphate isomerase (Homo sapiens, UniProt Q13907)
# Conditions: read-out: half-maximal inhibition of isopentenyl pyrophosphate isomerase; cited from earlier work
substance,measurement,value
"3,7,11-trimethyl-2,6,10-dodecatrien-1-ol-pyrophosphate [FPP]",IC50,10 µM
